Measurements: PubChem BioAssay (NCATS)
“And” between values parts separate entries of the source, which are not always exact repeats. Identical values can stand only once. Only a part is listed here, and it is no random draw. Records with an inconclusive call do not appear. The source made the active and inactive calls. Unless noted, the call rests on the fitted dose curve; in most records, active means well fitted curve in the direction sought with a large enough effect; inconclusive means small, poorly fitted or top-dose-only effect, or another doubt; inactive means no such curve, though single readings can be large; an effect the other way counts as inactive or inconclusive.

Protein sequences, listed by entry. Tags and fused reporters are not part of them. Lines headed by an entry give the natural chain unless they say otherwise; changes in a name come on top.
UniProt P16066: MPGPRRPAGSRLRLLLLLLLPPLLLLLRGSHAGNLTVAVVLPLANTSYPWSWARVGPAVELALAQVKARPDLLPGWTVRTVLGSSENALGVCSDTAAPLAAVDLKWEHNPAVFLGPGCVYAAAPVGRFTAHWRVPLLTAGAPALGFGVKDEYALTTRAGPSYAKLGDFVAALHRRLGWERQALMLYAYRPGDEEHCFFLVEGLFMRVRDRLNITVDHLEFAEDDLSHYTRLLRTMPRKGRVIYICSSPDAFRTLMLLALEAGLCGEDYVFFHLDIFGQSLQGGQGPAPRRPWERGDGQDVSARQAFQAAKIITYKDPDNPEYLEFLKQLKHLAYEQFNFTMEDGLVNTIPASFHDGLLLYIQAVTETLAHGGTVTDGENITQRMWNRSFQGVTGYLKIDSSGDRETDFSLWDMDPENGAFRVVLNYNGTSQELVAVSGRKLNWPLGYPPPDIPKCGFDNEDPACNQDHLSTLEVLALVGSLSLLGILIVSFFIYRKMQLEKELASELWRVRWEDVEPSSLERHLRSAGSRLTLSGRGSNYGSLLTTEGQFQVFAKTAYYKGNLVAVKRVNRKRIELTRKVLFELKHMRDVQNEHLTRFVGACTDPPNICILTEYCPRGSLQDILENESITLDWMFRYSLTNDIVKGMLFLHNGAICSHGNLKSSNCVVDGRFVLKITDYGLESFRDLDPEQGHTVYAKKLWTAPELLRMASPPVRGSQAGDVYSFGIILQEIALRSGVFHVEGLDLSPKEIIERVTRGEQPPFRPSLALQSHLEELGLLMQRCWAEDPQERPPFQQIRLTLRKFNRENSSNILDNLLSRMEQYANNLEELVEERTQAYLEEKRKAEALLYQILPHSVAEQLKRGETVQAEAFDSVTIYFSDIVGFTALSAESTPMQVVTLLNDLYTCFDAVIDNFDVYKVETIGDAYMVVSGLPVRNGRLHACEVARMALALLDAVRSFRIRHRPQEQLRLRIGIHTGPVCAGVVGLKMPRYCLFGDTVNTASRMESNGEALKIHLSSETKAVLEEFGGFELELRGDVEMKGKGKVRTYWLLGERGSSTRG
UniProt P20594: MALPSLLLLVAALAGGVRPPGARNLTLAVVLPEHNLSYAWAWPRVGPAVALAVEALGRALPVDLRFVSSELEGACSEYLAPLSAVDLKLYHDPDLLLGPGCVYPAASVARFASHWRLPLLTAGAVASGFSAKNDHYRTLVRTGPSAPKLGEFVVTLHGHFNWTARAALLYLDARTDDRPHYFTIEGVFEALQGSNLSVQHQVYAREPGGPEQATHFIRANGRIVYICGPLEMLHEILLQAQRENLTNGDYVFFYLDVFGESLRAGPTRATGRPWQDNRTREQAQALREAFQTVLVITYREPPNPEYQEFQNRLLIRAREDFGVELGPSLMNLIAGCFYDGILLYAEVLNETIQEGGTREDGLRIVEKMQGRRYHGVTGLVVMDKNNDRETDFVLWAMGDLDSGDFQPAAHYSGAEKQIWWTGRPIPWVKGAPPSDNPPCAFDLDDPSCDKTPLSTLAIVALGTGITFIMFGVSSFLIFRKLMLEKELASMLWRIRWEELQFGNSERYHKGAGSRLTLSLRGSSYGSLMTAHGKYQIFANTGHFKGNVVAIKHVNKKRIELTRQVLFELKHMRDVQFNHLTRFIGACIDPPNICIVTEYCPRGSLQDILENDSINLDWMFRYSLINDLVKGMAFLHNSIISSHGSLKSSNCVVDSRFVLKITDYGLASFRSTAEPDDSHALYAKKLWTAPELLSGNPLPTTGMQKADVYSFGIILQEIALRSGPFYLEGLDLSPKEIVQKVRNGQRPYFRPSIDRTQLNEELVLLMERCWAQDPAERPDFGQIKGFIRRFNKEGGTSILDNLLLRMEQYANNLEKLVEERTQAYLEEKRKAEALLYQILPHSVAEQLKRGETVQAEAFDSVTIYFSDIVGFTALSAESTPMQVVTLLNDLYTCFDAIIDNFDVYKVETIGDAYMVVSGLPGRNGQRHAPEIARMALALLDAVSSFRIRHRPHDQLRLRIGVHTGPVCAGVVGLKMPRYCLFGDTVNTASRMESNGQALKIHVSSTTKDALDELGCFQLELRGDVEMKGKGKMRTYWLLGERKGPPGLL
UniProt P78324, whole entry, looked up: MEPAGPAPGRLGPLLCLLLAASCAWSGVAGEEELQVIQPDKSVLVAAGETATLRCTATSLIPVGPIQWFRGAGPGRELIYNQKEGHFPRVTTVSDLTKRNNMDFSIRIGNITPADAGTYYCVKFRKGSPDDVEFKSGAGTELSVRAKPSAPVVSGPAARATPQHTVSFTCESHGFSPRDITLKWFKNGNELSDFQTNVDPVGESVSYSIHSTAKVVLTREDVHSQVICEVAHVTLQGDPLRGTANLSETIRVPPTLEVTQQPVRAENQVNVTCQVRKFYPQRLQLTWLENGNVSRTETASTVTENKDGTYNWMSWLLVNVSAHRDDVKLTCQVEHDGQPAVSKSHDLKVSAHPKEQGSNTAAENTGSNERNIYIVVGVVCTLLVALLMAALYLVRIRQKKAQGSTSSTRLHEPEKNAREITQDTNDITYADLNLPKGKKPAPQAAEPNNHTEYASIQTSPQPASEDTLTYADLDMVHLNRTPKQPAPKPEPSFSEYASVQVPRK
UniProt Q08722, whole entry, looked up: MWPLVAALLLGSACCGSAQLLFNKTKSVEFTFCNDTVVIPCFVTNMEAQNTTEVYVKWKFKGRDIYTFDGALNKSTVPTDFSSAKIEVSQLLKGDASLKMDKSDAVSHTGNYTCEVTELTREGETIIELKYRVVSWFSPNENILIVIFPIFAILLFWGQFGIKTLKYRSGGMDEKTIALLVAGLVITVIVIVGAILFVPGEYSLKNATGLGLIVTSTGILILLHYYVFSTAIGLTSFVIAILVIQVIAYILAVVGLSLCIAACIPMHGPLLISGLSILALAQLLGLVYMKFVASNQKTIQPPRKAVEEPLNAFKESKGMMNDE
UniProt Q03431: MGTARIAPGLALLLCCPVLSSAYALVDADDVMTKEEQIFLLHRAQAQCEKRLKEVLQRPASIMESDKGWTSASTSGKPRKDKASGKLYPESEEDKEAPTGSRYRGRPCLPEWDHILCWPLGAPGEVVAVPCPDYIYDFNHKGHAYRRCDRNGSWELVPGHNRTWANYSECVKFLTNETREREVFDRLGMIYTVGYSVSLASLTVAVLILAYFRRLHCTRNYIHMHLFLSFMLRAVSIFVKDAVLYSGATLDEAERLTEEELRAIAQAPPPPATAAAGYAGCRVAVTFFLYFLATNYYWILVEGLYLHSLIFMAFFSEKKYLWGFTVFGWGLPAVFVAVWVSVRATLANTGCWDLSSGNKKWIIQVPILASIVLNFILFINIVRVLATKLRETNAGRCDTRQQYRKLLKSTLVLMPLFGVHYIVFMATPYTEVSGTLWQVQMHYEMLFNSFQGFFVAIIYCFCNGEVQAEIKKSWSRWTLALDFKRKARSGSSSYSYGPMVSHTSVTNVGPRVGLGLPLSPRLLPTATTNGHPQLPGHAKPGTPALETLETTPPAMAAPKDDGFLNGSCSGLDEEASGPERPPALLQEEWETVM
UniProt Q9BV86: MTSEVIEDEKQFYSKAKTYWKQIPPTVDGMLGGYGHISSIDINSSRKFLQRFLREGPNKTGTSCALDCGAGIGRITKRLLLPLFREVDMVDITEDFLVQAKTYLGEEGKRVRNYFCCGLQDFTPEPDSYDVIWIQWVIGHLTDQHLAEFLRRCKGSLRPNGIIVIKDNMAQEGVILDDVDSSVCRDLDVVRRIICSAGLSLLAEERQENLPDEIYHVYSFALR
UniProt Q9UGL1: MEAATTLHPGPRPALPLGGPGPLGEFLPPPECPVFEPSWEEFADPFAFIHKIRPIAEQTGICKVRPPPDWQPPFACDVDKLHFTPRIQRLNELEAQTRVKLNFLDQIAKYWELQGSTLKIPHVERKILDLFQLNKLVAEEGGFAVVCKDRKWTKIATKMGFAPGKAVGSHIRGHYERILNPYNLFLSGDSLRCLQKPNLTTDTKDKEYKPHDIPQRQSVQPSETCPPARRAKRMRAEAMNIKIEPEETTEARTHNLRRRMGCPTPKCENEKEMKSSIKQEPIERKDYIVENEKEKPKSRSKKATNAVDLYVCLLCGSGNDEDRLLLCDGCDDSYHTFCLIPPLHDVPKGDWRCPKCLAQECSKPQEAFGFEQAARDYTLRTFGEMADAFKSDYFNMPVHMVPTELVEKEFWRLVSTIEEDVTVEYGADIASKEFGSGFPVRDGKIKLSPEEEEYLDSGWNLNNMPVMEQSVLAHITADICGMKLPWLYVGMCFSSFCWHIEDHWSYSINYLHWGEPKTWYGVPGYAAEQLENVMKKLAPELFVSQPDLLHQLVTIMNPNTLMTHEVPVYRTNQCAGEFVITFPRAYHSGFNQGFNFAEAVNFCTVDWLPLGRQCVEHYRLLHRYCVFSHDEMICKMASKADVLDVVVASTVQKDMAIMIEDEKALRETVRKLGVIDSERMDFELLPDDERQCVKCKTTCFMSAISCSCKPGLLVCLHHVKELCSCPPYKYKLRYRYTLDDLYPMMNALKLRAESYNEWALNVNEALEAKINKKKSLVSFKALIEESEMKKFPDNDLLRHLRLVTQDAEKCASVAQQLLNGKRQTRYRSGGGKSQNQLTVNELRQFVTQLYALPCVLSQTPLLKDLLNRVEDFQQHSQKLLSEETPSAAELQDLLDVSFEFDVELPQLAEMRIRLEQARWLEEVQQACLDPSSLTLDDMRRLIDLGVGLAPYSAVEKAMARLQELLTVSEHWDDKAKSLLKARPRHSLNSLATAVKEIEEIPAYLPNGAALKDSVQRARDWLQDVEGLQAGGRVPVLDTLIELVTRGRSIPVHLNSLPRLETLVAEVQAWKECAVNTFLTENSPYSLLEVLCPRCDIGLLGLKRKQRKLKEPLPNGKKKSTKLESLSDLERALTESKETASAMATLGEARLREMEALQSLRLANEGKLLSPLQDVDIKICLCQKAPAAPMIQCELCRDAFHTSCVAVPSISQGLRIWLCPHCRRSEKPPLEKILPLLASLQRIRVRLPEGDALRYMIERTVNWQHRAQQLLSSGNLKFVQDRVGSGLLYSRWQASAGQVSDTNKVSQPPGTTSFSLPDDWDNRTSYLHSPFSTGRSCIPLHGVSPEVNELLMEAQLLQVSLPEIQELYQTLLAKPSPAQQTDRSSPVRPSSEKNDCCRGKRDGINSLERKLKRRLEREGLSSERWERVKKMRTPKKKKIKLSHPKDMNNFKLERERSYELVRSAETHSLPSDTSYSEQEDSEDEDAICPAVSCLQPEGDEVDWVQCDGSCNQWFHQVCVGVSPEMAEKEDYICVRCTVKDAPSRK
UniProt Q9GZX7: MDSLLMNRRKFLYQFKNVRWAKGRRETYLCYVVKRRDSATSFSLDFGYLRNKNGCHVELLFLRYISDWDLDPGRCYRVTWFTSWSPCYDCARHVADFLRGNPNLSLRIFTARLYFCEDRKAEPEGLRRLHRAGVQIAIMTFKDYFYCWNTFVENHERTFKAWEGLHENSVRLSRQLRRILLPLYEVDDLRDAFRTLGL
UniProt Q99828: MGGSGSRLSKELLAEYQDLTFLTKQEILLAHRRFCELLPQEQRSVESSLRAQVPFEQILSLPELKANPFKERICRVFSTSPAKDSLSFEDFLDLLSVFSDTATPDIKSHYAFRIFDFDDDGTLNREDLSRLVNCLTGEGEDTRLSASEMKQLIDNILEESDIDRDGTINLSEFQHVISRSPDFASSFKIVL
UniProt C7C422: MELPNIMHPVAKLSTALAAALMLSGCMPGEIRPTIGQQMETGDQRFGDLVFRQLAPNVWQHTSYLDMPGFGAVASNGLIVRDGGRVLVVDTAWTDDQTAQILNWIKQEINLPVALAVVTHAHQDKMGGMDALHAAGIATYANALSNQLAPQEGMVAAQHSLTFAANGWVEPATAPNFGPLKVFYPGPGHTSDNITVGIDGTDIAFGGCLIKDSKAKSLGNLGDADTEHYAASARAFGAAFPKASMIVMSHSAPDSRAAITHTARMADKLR
UniProt P36969, whole entry, looked up: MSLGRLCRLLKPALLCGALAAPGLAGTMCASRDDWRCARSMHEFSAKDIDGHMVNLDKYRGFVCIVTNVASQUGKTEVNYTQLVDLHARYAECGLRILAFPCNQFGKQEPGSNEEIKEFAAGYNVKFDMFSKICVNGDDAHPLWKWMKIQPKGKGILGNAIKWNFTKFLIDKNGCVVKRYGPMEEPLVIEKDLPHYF

Key:
[1] = biological target: Atrial natriuretic peptide receptor 1 (Homo sapiens) (UniProt P16066); assay: Natriuretic polypeptide receptor (hNpr1) antagonism - Pilot screen (AID 1347049; calls by dose curve;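 further: agonist-evoked cGMP luminescence read 20 min after hNppA addition; on the % scale 0 is the no-effect control and ±100 the full control effect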); conditions: hNpr1 cells, antagonist mode cGMP read-out; at 57.5 µM (top of the series)
How it was run: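 Readout is cGMP-driven firefly luciferase luminescence in HEK293 cells carrying hNpr1 and a PDE5-domain GloSensor, read before and 20 min after 0.1 nM hNppA stimulation. Cells had 2% substrate reagent for 2 h and test compound for 30 min.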

[2] = biological target: Atrial natriuretic peptide receptor 2 (Homo sapiens) (UniProt P20594); assay: Natriuretic polypeptide receptor (hNpr2) antagonism - Pilot subtype selectivity assay (AID 1347050; calls by dose curve; further: on the % scale 0 is the no-effect control and ±100 the full control effect); conditions: NPR2-expressing cells, cGMP antagonist-mode read-out; at 38.3 µM (top of the series)
How it was run: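 Pilot selectivity screen against hNpr2: HEK293 cGMP-sensor cells are treated with LOPAC1280 compounds, then with hNppC peptide at 1 nM final. The cGMP-driven luminescence change over 20 min at room temperature is the read-out.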

[3] = biological target: T1, Tyrosine-protein phosphatase non-receptor type substrate 1 (Homo sapiens) + Leukocyte surface antigen CD47 (Homo sapiens) (UniProt P78324+Q08722); assay: CD47-SIRPalpha protein protein interaction - LANCE assay qHTS validation (AID 1347057; active means well fitted curve in the direction sought with a large enough effect in the signal ratio, with a control signal flat, not every such curve was filed as active; the % refers to the signal ratio; further: 0% is about no effect); conditions: Recombinant CD47-His / biotin-SIRPalpha, TR-FRET ratio; at 38.3 µM (top of the series)
How it was run: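 First, His-tagged CD47 and Eu-labelled anti-His antibody met the compound for 30 min; next, site-specifically biotinylated SIRPalpha was added for 30 min; finally streptavidin-APC was added before reading the TR-FRET ratio.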

[4] = biological target: T1, Tyrosine-protein phosphatase non-receptor type substrate 1 (Homo sapiens) + Leukocyte surface antigen CD47 (Homo sapiens); assay: CD47-SIRPalpha protein protein interaction - HTRF assay qHTS validation (AID 1347058; active means well fitted curve in the direction sought with a large enough effect in the signal ratio, not every such curve was filed as active; the % refers to the signal ratio;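 further: recombinant soluble extracellular CD47 with His tag and biotinylated SIRPalpha domains; 0% is about no effect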); conditions: TR-FRET HTRF CD47-His / biotin-SIRPalpha binding, ratio 665/615; at 38.3 µM (top of the series)
How it was run: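 TR-FRET read (Ch1/Ch2 ratio) of soluble extracellular CD47 and Avi-biotinylated SIRPalpha domains in PBS pH 7.4 with 0.05% IGEPAL; 7-point compound titration. Sequential 30 min room-temperature steps; non-biotinylated SIRPalpha as control inhibitor.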

[5] = biological target: T1, Tyrosine-protein phosphatase non-receptor type substrate 1 (Homo sapiens) + Leukocyte surface antigen CD47 (Homo sapiens); assay: CD47-SIRPalpha protein protein interaction - Alpha assay qHTS validation (AID 1347059); conditions: AlphaScreen CD47-His/biotin-SIRPalpha binding, LOPAC; at 38.3 µM (top of the series);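 further: bead proximity luminescence from CD47 binding SIRPalpha after compound preincubation with SIRPalpha; on the % scale 0 is the no-effect control and ±100 the full control effect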
How it was run: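 Binding is measured by AlphaScreen proximity: Ni-NTA acceptor beads capture His-CD47, streptavidin donor beads capture biotin-SIRPalpha. Each of three additions (SIRPalpha with compound, CD47, beads) incubates 30 min at room temperature protected from light.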

[6] = biological target: Parathyroid hormone/parathyroid hormone-related peptide receptor (Homo sapiens) (UniProt Q03431); assay: qHTS for PTHR1 Agonists: Optimization Screen against the NCGC LOPAC library (AID 1347079); conditions: HEK293 GP2 PTHR1 GloSensor cAMP luminescence, 1 h; at 57.1 µM (top of the series);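 further: GloSensor cAMP luminescence in HEK-293 GP2 cells expressing human PTHR1 with IBMX; 0% is about no effect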
How it was run: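 Agonist readout: GloSensor cAMP luminescence, read after 15 min at room temperature. HEK-293-derived GP2 line carries PTHR1; compounds tested as a titration for 1 hr at 37C in presence of IBMX. M-PTH (1-15) served as control.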

[7] = biological target: N-terminal Xaa-Pro-Lys N-methyltransferase 1 (Homo sapiens) (UniProt Q9BV86); assay: qHTS Assay for Inhibitors of N-terminal methyltransferase 1 (NTMT1): LOPAC validation of the NTMT1 SAHH-coupled ThioGlo3 Assay (AID 1347143); conditions: recombinant NTMT1, SAHH-coupled ThioGlo3 fluorescence; at 114 µM (top of the series);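 further: SAH from peptide methylation measured as thiol fluorescence via SAHH coupling and ThioGlo3; on the % scale 0 is the no-effect control and ±100 the full control effect; nearly all actives have a fitted effect of over 70% in size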
How it was run: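 Inhibition of NTMT1 methylation of peptide SPKRIA is followed by converting SAH with SAHH and labelling the released thiol with ThioGlo3. Plates are read at 340/450nm before and 30 min after reagent addition, both at room temperature.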

[8] = biological target: Lysine-specific demethylase 5B (Homo sapiens) (UniProt Q9UGL1); assay: Optimization screen for KDM5B Histone Demethylases FDH coupled qHTS against the LOPAC library (AID 1347166); conditions: KDM5B demethylation, FDH-coupled NADH fluorescence; at 57.5 µM (top of the series); further: 0% is about no effect
How it was run: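 KDM5BDeltaAP (200nM final) preincubated 10 min with compound, then 12.5uM H3K4Me3, 25uM a-ketoglutarate, ascorbate, Fe(II), NAD+ and FDH added; 50mM HEPES pH 7.5, 0.01% Tween-20. NADH fluorescence (340/450 nm) change over 30 min, room temperature.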

[9] = qHTS to identify inhibitors of the type 1 interferon - major histocompatibility complex class I in skeletal muscle: primary screen against the NCATS LOPAC collection (AID 1347405); conditions: iHSKM muscle cells, IFN-b-induced MHC-I HiBiT luminescence, 24 h; at 45.9 µM (top of the series);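 further: lytic HiBiT luminescence reporting HLA-B protein level; on the % scale 0 is the no-effect control and ±100 the full control effect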
How it was run: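 CRISPR-engineered immortalized human myoblasts (C25cl48) with HiBiT fused to endogenous HLA-B*08:01, stimulated with 4 ng/ml IFN-beta. LOPAC compounds tested as a 7-point 1:4.3 titration (top 46 uM final), 24 h at 37 C; lytic HiBiT luminescence read.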

[10] = qHTS for inhibitors of adenylyl cyclases using a fission yeast platform: a pilot screen against the NCATS LOPAC library (AID 1347410);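 further: plate controls were DMSO vehicle for no effect and DPI positive control for full effect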; conditions: S. pombe CHP2027, fbp1-GFP fluorescence, 18 h, yeast expressing mammalian AC9 and human GNAS; at 57.5 µM (top of the series)
How it was run: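 Read-out: fbp1-GFP fluorescence by laser scanning cytometry (488 nm laser), a gain of signal when AC/cAMP-PKA signalling is inhibited. Strain CHP2027 expressing AC9, GNAS and PDE4D2; compounds at up to 57 µM; 18 h, 30C.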

[11] = Validation qHTS assay for inhibitors of Activation Induced Cytidine Deaminase (AID): UDG Counterscreen signal (AID 1347427); conditions: biochemical UDG counterscreen, fluorescence signal; at 115 µM (top of the series); further: 0% is about no effect
How it was run: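 Counterscreen read of UDG activity (2 U/mL, 4/3x) in the FRET deamination format with AID (1 uM, 4/3x), DJC20/DJC23 substrates (250 nM, 4x), 4 h at room temperature. NaOH stop, fluorescence at 560 ex/665 em.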

[12] = biological target: Single-stranded DNA cytosine deaminase (Homo sapiens) (UniProt Q9GZX7); assay: Validation qHTS assay for inhibitors of Activation Induced Cytidine Deaminase (AID): AID signal (AID 1347429); conditions: Recombinant AID, FRET ssDNA deamination with UDG, fluorescence; at 115 µM (top of the series); further: on the % scale 0 is the no-effect control and ±100 the full control effect
How it was run: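 FRET deamination assay: 1 uM AID (4/3x stock) with UDG, compound up to 114 uM, then 250 nM DJC20/DJC23 substrate (4x stock) for 4 hr at room temperature. NaOH added, 30 min; fluorescence read 540/590 nm.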

[13] = biological target: Calcium and integrin-binding protein 1 (Homo sapiens) (UniProt Q99828); assay: Validation qHTS for Identification of Calcium Integrin Binding protein 1 (CIB1) Competitor (AID 1508618); conditions: CIB1-GST / FITC-alphaIIb peptide fluorescence polarization; at 114 µM (top of the series); further: on the % scale 0 is the no-effect control and ±100 the full control effect
How it was run: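 CIB1-GST (1 uM final) incubated 15 min at room temperature with compounds (up to 114 uM), then FITC-labelled alphaIIb peptide (100 nM) added. FP read (Ex 480/Em 540) after 15 min, pH 7.4 buffer containing 5 mM CaCl2.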

[14] = biological target: Metallo-beta-lactamase type 2 (Klebsiella pneumoniae) (UniProt C7C422); assay: qHTS to identify inhibitors of the New Delhi Metallo-beta-lactamase (NDM): assay validation screen against the NCATS LOPAC Collection (AID 1794843); conditions: NDM-1 enzyme, nitrocefin hydrolysis, absorbance 485 nm; at 38.4 µM (top of the series); further: on the % scale 0 is the no-effect control and ±100 the full control effect
How it was run: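 Absorbance at 485 nm from nitrocefin turnover (50 uM solution added), read at plateau, gives the read-out. Compounds in DMSO were incubated first with 2 nM final NDM-1 in pH 7.0 HEPES buffer containing 1 uM ZnSO4 and 0.01% Tween20.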

[15] = biological target: Phospholipid hydroperoxide glutathione peroxidase GPX4 (Homo sapiens) (UniProt P36969); assay: Primary qHTS Assay for Inhibitors of Recombinant Selenoprotein Glutathione Peroxidase 4 (GPX4) (AID 1845192); conditions: recombinant GPX4, GR-coupled NADPH fluorescence, 15 min; activity change, negative = inhibition: at 50 µM (top of the series); further: nearly all actives have a fitted effect of over 65% in size
How it was run: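 NADPH consumption, followed by fluorescence at 340/450 nm between 0 and 15 min, reports GPX4 activity via coupled glutathione reductase (100 nM). Enzyme 200 nM was pre-exposed to compound 30 min; 0.5 mM cumene hydroperoxide and 1 mM GSH served as substrates.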

CN(C(=O)Cc1ccc(Cl)c(Cl)c1)[C@H]1CCCC[C@@H]1N1CCCC1
inactive: activity change, negative = inhibition [1] 0.625% and 3.47% | activity change, negative = inhibition [2] -3.38% and -1.83% | activity change, negative = inhibition [3] 1.19% and 0.659% | activity change, negative = inhibition [4] -0.724% and -0.99% | activity change, negative = inhibition [5] -2.36% and -4.32% | activation [6] -18.2% and -3.31% | activity change, negative = inhibition [7] -15.8% and -30% | activity, negative = inhibition [8] -18.4% and -13.1% | activity change, negative = inhibition [9] 1.22% and 8.67% | activity, positive = inhibition (GFP gain) [10] 2.05% and -0.438% | activity, negative = inhibition [11] -4.97% and -4.75% | activity change, negative = inhibition [12] -0.999% and 5.97% | activity change, negative = inhibition [13] -1.51% and 2.73% | activity change, negative = inhibition [14] 4.8% and -0.921% | activity change, negative = inhibition [15] 0.0869% | outcome [15]
